Tested on: kinases of Table 6 on Myelin Basic Protein (MBP)
Experiment: Kinase assay using MBP substrate, ProQ Diamond stain (Table 6)
Format: biochemical
Conditions: kinase printed on MBP-coated slide; 20 uM ATP, 30° C.; ProQ Diamond Microarray Stain; graded Strong/Weak/Negative

B1: ERBB4 (protein)
chain: RRKSIKKKRALRRFLETELVEPLTPSGTAPNQAQLRILKETELKRVKVLGSGAFGTVYKGIWVPEGETVKIPVAIKILNETTGPKANVEFMDEALIMASMDHPHLVRLLGVCLSPTIQLVTQLMPHGCLLEYVHEHKDNIGSQLLLNWCVQIAKGMMYLEERRLVHRDLAARNVLVKSPNHVKITDFGLARLLEGDEKEYNADGGKMPIKWMALECIHYRKFTHQSDVWSYGVTIWELMTFGGKPYDGIPTREIPDLLEKGERLPQPPICTIDVYMVMVKCWMIDADSRPKFKELAAEFSRMARDPQRYLVIQGDDRMKLPSPNDSKFFQNLLDEEDLEDMMDAEEYLVPQAFNIPPPIYTSRARIDSNRSEIGHSPPPAYTPMSGNQFVYRDGGFAAEQGVSVPYRAPTSTIPEAPVAQGATAEIFDDSCCNGTLRKPVAPHVQEDSSTQRYSADPTVFAPERSPRGELDEEGYMTPMRDKPKQEYLNPVEENPFVSRRKNGDLQALDNPEYHNASNGPPKAEDEYVNEPLYLNTFANTLGKAEYLKNNILSMPEKAKKAFDNPDYWNHSLPPRSTLQHPDYLQEYSTKYFYKQNGRIRPIVAENPEYLSEFSLKPGTVLPPPPYRHRNTVV
modifications: left off: a dimerising Fc or GST
In the case of B1, the “MBP Kinase Activity” value is reported as “Negative”.

B2: PDK1 (protein)
chain: MARTTSQLYDAVPIQSSVVLCSCPSPSMVRTQTESSTPPGIPGGSRQGPAMDGTAAEPRPGAGSLQHAQPPPQPRKKRPEDFKFGKILGEGSFSTVVLARELATSREYAIKILEKRHIIKENKVPYVTRERDVMSRLDHPFFVKLYFTFQDDEKLYFGLSYAKNGELLKYIRKIGSFDETCTRFYTAEIVSALEYLHGKGIIHRDLKPENILLNEDMHIQITDFGTAKVLSPESKQARANSFVGTAQYVSPELLTEKSACKSSDLWALGCIIYQLVAGLPPFRAGNEYLIFQKIIKLEYDFPEKFFPKARDLVEKLLVLDATKRLGCEEMEGYGPLKAHPFFESVTWENLHQQTPPKLTAYLPAMSEDDEDCYGNYDNLLSQFGCMQVSSSSSSHSLSASDTGLPQRSGSNIEQYIHDLDSNSFELDLQFSEDEKRLLLEKQAGGNPWHQFVENNLILKMGPVDKRKGLFARRRQLLLTEGPHLYYVDPVNKVLKGEIPWSQELRPEAKNFKTFFVHTPNRTYYLMDPSGNAHKWCRKIQEVWRQRYQSHPDAAVQ
modifications: left off: small tags and cut ends
For B2, the “MBP Kinase Activity” value was “Weak”.
